Earlier results, collected in patent publication US20070101461A1, “Method for Improving Phytoremediation Treatment of a Contaminated Medium” (priority 2001, published 2007).
Only a part of the results on these compounds is given; other tests are left out.

System: plant
Settings: cited from earlier work

In the case of `Cc1c([N+](=O)[O-])cc([N+](=O)[O-])cc1[N+](=O)[O-]`, the “Fate in plant (toxic, build up, or volatile)” value is given as “Toxic, degraded to”.
